The values that follow come from US6077822A, “Drug salts” (Dumex-Alpharma A/S, priority 1993, dated 2000).

A short description of data set [1]: reaction of the salts with water.
The conditions of data set [2]: 250 mg in 25 ml ion-exchanged water, 5% NaH2PO4 buffer pH 4.3 and 0.01 M HCl, 37±0.5° C.
The conditions of data set [3]: in vivo; cited from earlier work.

For “Gentamycin Salt of Sucrose-octa-O-sulfonic Acid [Example 9]”, the “solubility in water of the viscous fluid formed with water” value (“solubility in water” for short) in data set [1] is listed as “comparatively low solubility in water”.

On to “Kanamycin A Salt of Sucrose-octa-O-sulfonic Acid [Example 7]”, for which the solubility result in data set [2] is given as “low solubility in water”. For the same substance, in data set [1], the “solubility in water” value is “comparatively low solubility in water”. For “Kanamycin/aluminium Salt of Sucrose-octa-O-sulphonic Acid [Example 13]”, in data set [1], the “solubility in water” value is “comparatively low solubility in water”. As to “doxycyclin carrageenate [doxycyclin carregeenate]”, in data set [3], the “effect of increased pH of the stomach on bioavailability / dissociation and absorption” value was “independent of pH”.
